Results: US20260216141A1, “NECROSIS INHIBITOR” (LINKGEVITY LIMITED, priority 2023, published 2026)

Test system: Hepg2s spheroids
Assay type: cell-based
Details: compound in isolation, most trials
Experimental: Media changes were on alternative days. […] DMSO controls were added on each plate.
In some of the following Examples, human 3D cell culture was employed using liver Hepg2 cells. 3D cell culture is known to accurately replicate a cell's native environment. During embryonic development, cells aggregate and self-assemble into complex multi-cellular structures. The same aggregation process can likewise occur in in vitro culture systems if cell-cell cohesion is favoured over cell attachment to a substrate. The resulting 3D cell culture aggregates are known as spheroids. […] A standard method of spheroid formation in U-bottom low adhesion plates was used in the Examples herein.
This is because, as the spheroids grow, only the peripheral cells obtain oxygen and nutrients from the cell culture medium. The inner cells die from cell death necrosis, with the formation of large necrotic cores (observable though use of standard live dead stains). Thus, necrotic core formation represents a naturally occurring hypoxic and nutrient stress. This resembles multiple forms of shock in humans where blood flow carrying nutrients and oxygen is disrupted to certain cells, tissues and/or organs.

Substance: ryanodine
- level of cell death / toxicity in isolation relative to control: greater level of cell death than the control
